Laboratory results: patent publication US8778951B2, “Heteroaryl compounds and their uses” (Novartis AG, priority 2009, dated 2014)

Chains of the proteins cited; added tags and fusions are not shown.
UniProt P50750, whole entry: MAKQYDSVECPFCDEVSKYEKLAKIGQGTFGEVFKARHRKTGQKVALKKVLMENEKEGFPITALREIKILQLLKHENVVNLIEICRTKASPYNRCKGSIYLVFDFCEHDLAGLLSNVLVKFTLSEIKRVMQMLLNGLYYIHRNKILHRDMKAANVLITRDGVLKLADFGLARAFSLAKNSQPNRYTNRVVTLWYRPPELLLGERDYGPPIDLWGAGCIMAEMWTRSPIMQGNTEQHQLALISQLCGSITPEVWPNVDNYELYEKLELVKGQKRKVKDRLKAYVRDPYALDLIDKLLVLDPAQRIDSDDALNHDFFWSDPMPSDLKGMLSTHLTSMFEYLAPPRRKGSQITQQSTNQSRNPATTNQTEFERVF
UniProt O60563, whole entry partner: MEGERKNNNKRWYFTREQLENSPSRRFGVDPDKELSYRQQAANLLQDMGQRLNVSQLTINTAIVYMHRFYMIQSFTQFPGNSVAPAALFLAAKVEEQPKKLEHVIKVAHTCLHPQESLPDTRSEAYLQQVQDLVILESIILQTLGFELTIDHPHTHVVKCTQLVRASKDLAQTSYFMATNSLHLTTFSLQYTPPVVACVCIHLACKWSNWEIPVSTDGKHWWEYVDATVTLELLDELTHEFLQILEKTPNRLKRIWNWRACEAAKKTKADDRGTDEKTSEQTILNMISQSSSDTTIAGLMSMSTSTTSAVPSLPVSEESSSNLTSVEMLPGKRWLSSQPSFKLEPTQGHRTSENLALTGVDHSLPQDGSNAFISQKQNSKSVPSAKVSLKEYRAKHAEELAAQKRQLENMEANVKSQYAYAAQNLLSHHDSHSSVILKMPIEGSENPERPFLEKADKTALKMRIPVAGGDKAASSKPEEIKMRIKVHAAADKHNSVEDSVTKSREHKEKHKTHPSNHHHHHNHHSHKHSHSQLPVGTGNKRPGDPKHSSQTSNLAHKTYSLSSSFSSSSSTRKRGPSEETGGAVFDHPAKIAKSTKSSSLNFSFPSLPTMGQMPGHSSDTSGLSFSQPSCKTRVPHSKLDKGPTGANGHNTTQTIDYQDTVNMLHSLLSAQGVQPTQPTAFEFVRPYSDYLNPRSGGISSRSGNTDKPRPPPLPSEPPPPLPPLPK

Target: Cdk9/cyclinT1 (Homo sapiens (Human), UniProt P50750)
Test: Cdk9/CyclinT1 IMAP Protocol (fluorescence polarization kinase assay)
Format: biochemical
Settings: read-out: CDK9 CYCLINT1 (IC50); Table 2; generated using one of the two Cdk9/cyclinT1 assays (IMAP or Alpha Screen), not specified which; unit inferred

Row | Structure (SMILES) | pIC50
1 | CC1(CNc2nc(-c3cc(N[C@H]4CC[C@H](NCC5(C)OCCO5)CC4)ncc3Cl)ccc2F)CCOCC1 | 9.00
2 | CC1(CN[C@H]2CC[C@H](Nc3cc(-c4ccc(F)c(NCC5(C#N)CCOCC5)n4)c(Cl)cn3)CC2)OCCO1 | 9.57

pIC50: −log10 of the molar value.
